# Target: T1, Der p 1 (Dermatophagoides pteronyssinus, UniProt P08176)
# T1 sequence (P08176 99-320): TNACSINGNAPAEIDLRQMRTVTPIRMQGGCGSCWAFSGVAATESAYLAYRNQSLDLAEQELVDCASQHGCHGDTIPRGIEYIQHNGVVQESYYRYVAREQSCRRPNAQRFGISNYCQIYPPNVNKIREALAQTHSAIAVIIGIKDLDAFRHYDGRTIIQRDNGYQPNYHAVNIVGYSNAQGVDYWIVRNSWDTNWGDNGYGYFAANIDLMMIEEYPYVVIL
# Format: biochemical
# Details: mean ± SE
row,Compound,IC50 [nM]
1,"CC(C)[C@H](NC(=O)[C@H](C)NC(=O)[C@H](Cc1ccccc1)NC(=O)c1ccccc1)C(=O)C(=O)NCC(=O)N1CC[N+](C)(C)CC1.O=C[O-] [Compound 52, 4-(2-{(S)-3-[(S)-2-((S)-2-Benzoylamino-3-phenyl-propionylamino)-propionylamino]-4-methyl-2-oxo-pentanoylamino}-acetyl)-1,1-dimethyl-piperazin-1-ium Formate]",17 ± 2
2,"CC(C)[C@H](NC(=O)[C@H](C)NC(=O)[C@@H](NC(=O)C1CC[N+](C)(C)CC1)C(C)(C)C)C(=O)C(=O)NCc1ccccc1.O=C[O-] [Compound 32, 4-{(S)-1-[(S)-1-((S)-1-Benzylaminooxalyl-2-methyl-propylcarbamoyl)-ethylcarbamoyl]-2,2-dimethyl-propylcarbamoyl}-1,1-dimethyl-piperidinium Formate]",6 ± 1
